# scFv variants of Ab-95 (light chain) against a SARS-CoV-2 spike peptide

The measurements come from Engelhart et al. 2022 (doi:10.1038/s41597-022-01779-4) through the FLAb antibody collection.

Target: peptide PDVDLGDISGINAS, taken from heptad repeat 2 (HR2) of SARS-CoV-2 spike.

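Phage display of a naive human antibody library on the peptide gave the parent. Library AAYL52 holds single substitutions and randomly drawn double and triple substitutions in the CDRs. The scFvs were displayed on barcoded MATa yeast, the peptide on MATalpha yeast. Pairs that bind mate more often; barcode pairs of the diploids are counted by sequencing. Read counts were normalised to the haploid input and turned into Kd by a linear fit to BCL2-family pairs of known affinity, for each replicate. The assay was run in three technical replicates.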

Ab-95 is the parent antibody, in scFv form: VH, then the linker GGGGSGGGGSGGGGS, then VL. The heavy chain is unchanged in all variants.
VH: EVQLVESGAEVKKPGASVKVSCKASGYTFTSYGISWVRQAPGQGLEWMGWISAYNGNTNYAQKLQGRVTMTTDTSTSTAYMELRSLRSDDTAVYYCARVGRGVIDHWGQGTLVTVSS
VL: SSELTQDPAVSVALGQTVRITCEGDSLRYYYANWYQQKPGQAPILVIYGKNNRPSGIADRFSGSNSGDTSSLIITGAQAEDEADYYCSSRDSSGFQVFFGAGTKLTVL

The parent's light chain CDRs are EGDSLRYYYAN, GKNNRPS, SSRDSSGFQVF; each variant's own CDRs replace them letter for letter.
The read-out is the apparent dissociation constant on a log10 scale (nM): the lower, the stronger.
"n.d." marks a missing value. The strain was present, yet no cells mated with the target were sequenced in that replicate, which points to weak or no binding.

| CDR-L1 | CDR-L2 | CDR-L3 | replicates, log10 nM |
|---|---|---|---|
| EGDSLRYYYAN | GKHNRPV | SSRDSSGDQVF | n.d. / 3.58 / 2.79 |
| EGDSLMYYYAN | GKNNRPS | SSRQSSGFGVF | 4.40 / 3.18 / 4.46 |
| NGDSLRYYYAN | GKNNRPS | SSRDSSGFFVF | 3.63 / 2.92 / 2.75 |
| EGDSMRYYYAN | GKNNSPS | SSRDSSGWQVF | 3.13 / 3.47 / n.d. |
| KGDSLRYYYAN | GKNNRPS | SSNDSEGFQVF | 2.99 / 2.97 / 2.18 |
| EGDSKRYYYAN | GKNNKPS | SSRDSSIFQVF | 4.79 / 5.68 / n.d. |
| QGDSLMYYYAN | GKNNDPS | SSRDSSGFQVF | 3.03 / 3.60 / n.d. |
| EGDPLRYYDAN | GKNNRPS | SSRDSSRFQVF | 2.03 / 2.55 / 1.63 |
| ECDSLRYYYAN | GKNERPS | SNRDSSGFQVF | 2.71 / 2.62 / 2.65 |
| HGDSLGYYYAN | GKNNRPG | SSRDSSGFQVF | 1.81 / 1.71 / 1.46 |
| EGDSLRYYYAH | NKNNRPS | SSRDSSGFQVL | n.d. / 3.96 / n.d. |
| EGDSLRGYYAN | GKNNRPS | SSRDQSGFQVP | 2.82 / 2.86 / 2.28 |
| EGDSLRYYYHN | GKNNEPI | SSRDSSGFQVF | n.d. / n.d. / n.d. |
| EPDSLRYYYAN | GKNCRPS | SSDDSSGFQVF | 3.52 / 2.72 / 3.62 |
| EGDSGRYYYAN | GKNNRPS | SPFDSSGFQVF | 3.34 / 3.05 / 2.76 |
| EGDSLRSYYAN | GKNWQPS | SSRDSSGFQVF | n.d. / 3.58 / n.d. |
| EGDSLMYYYAN | GKNIRPS | KSRDSSGFQVF | n.d. / n.d. / n.d. |
| EGDSLRYYYAN | GTNNRPS | SSRDESGEQVF | 3.45 / 3.36 / 2.75 |
| EGDCLRYYYAK | GKNNRPS | KSRDSSGFQVF | 4.28 / n.d. / n.d. |
| EGCSMRYYYAN | GKNNRPS | SSRDSSGFQPF | 4.70 / n.d. / 3.49 |
| EGDSWRYPYAN | GKNNRPS | SSRDSSGFQLF | 2.86 / 3.41 / 2.84 |
| EHDSLRYYYAN | GKNNRPS | SSRDSSGFQGT | n.d. / 4.97 / n.d. |
| EGDSLRRYYAN | GVNNRPS | SSRDSSGFQVY | 3.01 / 2.97 / 2.98 |
| EDDSLRPYYAN | GKNNRPS | SSRDSSGFQMF | n.d. / 3.75 / 4.37 |
| EGKSLLYYYAN | GKNNRPS | SSRDSSGFQVH | 2.39 / 2.12 / 2.41 |
| EGFSLRYYYEN | GKNNRPS | SSMDSSGFQVF | n.d. / n.d. / n.d. |
| EVDSLRYYYAN | GKNNRPD | SGRDSSGFQVF | 4.25 / 3.07 / 2.71 |
| EGDSLEKYYAN | HKNNRPS | SSRDSSGFQVF | 3.08 / 2.95 / 3.91 |
| FGDSLRYEYTN | GKNNRPS | SSRDSSGFQVF | 2.21 / 1.89 / 2.17 |
| EGDSLRYVYAN | GKVNRPS | SSRDSSKFQVF | n.d. / n.d. / n.d. |
| EGHSLRYYYAN | GKNFRPS | SSRDSSGFQVF | 3.30 / 3.54 / 2.96 |
| EGDSLRYYYAN | GKNNRQS | SSRWSSNFQVF | 2.71 / 2.95 / 4.28 |
| EGDSLRYYYIE | GKNNRPS | SSRDKSGFQVF | 4.92 / n.d. / n.d. |
| EGDSPRYYYAN | GKNNRPS | SSRDSSGFQQI | 4.30 / 5.19 / n.d. |
| EGDSERYTYAN | LKNNRPS | SSRDSSGFQVF | n.d. / 4.29 / n.d. |

The first 3 variants above that were never detected:

| CDR-L1 | CDR-L2 | CDR-L3 | replicates, log10 nM |
|---|---|---|---|
| EGDSLRYYYHN | GKNNEPI | SSRDSSGFQVF | n.d. / n.d. / n.d. |
| EGDSLMYYYAN | GKNIRPS | KSRDSSGFQVF | n.d. / n.d. / n.d. |
| EGFSLRYYYEN | GKNNRPS | SSMDSSGFQVF | n.d. / n.d. / n.d. |

Parent in this assay: reference entry 2.31, copy in this library 2.25.
Empty control strains, which show no peptide, gave a signal in 28% of pairings with library AAYL52; the median was 3.91 and 95% of these signals were weaker than 2.90. No background was subtracted.